# PubChem BioAssay AID802 (Columbia University Molecular Screening Center, 2007)
# This is a selection; strong and weak results do not stand in their true shares. Calls of active or inactive are those of the source.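 How the source made its calls: active means inhibition above the batch mean plus 3 SD, with images confirmed as a hit by eye (cut at about 37% in these data); inconclusive means inhibition above that limit but hit not confirmed in images; inactive means inhibition not above that limit.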
# Test: inhibitors of TNFa-induced VCAM1 expression, primary screen, imaging, HUVEC, TNFa stimulus, immunofluorescence (AID 802);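 further: 0% = TNF-stimulated DMSO wells and 100% = unstimulated control wells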
# Conditions: HUVEC TNFa-induced VCAM-1 immunofluorescence, high-content imaging; at 2 µM; hits give high values
row,SMILES,inhibition
1,O=C(NCC1(N2CCOCC2)CCCCC1)c1cc2ccccc2o1,inactive: -10.2%
2,O=C(OC1CN2CCC1CC2)C1c2ccccc2Oc2ccccc21 (stereo not given),inactive: -0.7%
3,COc1ccc(NC2CCN(CCc3ccccc3)CC2)c(OC)c1,inactive: 17.3%
4,N#CC1(Nc2ccccc2)CCN(CCc2ccccc2)CC1,inactive: -11.5%
5,O=C(NCC1(N2CCOCC2)CCCCC1)c1cc(=O)[nH]c2ccccc12,inactive: -0.8%
6,CN1CCC(Nc2cccc(F)c2)CC1,inactive: 9.5%
7,N/C(=N\O)c1c(N)no[n+]1[O-],inactive: -5.3%
8,c1ccc(CN2CCC(Nc3ccccc3)CC2)cc1,inactive: -8.6%
9,CCOc1ncccc1C(=O)NCC1(N2CCOCC2)CCCCC1,inactive: 12.6%
10,CCC(CO)(C(=O)OC1CN2CCC1CC2)c1ccccc1 (stereo not given),inactive: -9.2%
